Measurements published in ChEMBL document CHEMBL1130129, “Immunologically specific activation of a cephalosporin derivative of mitomycin C by monoclonal antibody beta-lactamase conjugates” (J Med Chem, 1997).

Experiment: Ratio of kinetic constants for hydrolysis by beta-lactamase from Enterobacter cloacae P99 (kcat/Km)
Parameters: unit not given here
Summary of the method: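 Purified E. cloacae β-lactamase (0.1 µg/mL) added to prodrug in PBS pH 7.2 containing 12.5 µg/mL bovine serum albumin, 23 °C; β-lactam hydrolysis followed by loss of absorbance at 260 nm. Initial velocities taken from linear portions of absorbance-time plots and used to derive kinetic constants.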

Question: Which Ratio does the source give for `COc1cccc2c1C(=O)c1c(O)c3c(c(O)c1C2=O)C[C@@](O)(C(=O)CO)C[C@@H]3OC1CC(NC(=O)OCC2=C(C(=O)O)N3C(=O)[C@@H](NC(=O)Cc4ccccc4)[C@H]3SC2)C(O)C(C)O1` (stereo partly specified) here?
Answer: 6.1
